# This is a selection; strong and weak results do not stand in their true shares. Inconclusive results are not listed. Some salts and complexes are drawn in separate pieces, as the source files them; their charges need not balance. Active and inactive are the calls of the source. Calls follow the shape of the full dose curve.
# Target: Snurportin-1 (Homo sapiens) + GTP-binding nuclear protein Ran (Homo sapiens) + Importin subunit beta-1 (Homo sapiens) (UniProt O95149+P62826+Q14974)
# Assay: qHTS Assay for Inhibitors of RanGTP induced Rango (Ran-regulated importin-beta cargo) - Importin beta complex dissociation; also: % of control where 0% means no effect; nearly all actives have a fitted effect of over 45% in size
# Conditions: Biochemical FRET Rango-importin beta; at 46.1 µM (top of the series)
row,Compound,"activity change, negative = inhibition"
1,CCOC(=O)C(CC)C1=NC(C)(C)Cc2ccccc21.O=[N+]([O-])c1cc([N+](=O)[O-])c(O)c([N+](=O)[O-])c1 (stereo not given),inactive: 17.1%
2,N#Cc1ccc(C(=O)NCC2(N3CCCCC3)CCCCC2)cc1,inactive: 4.66%
3,CC(C)(C)OC(=O)N1CCC(N(C(=O)c2ccccc2)c2ccc(Cl)cc2)CC1,inactive: -12.9%
4,CN(C)C1(CNC(=O)c2cccc(C#N)c2)CCCCC1,inactive: -6.07%
5,c1ccc(CN2CCC(Nc3ccccc3)CC2)cc1,inactive: 0.794%
6,Cc1cc(N(CCCl)CCCl)ccc1C=O,inactive: -1.3%
7,CCCN1CCC(Nc2cc(OC)cc(OC)c2)CC1,inactive: 0.676%
8,COc1cc(C(=O)NCC2(N3CCOCC3)CCCCC2)cc(OC)c1C,inactive: -8.82%
9,O=C(NCC1(N2CCOCC2)CCCCC1)c1cc(Br)ccc1Cl,inactive: -2.98%
10,CCc1cc(C(=O)NCC2(N3CCCCC3)CCCCC2)sc1C,inactive: -1.79%
11,O=C(OC1CN2CCC1CC2)C1c2ccccc2C=Cc2ccccc21 (stereo not given),inactive: -4.04%
12,O=C(O)c1cccc(Nc2c([N+](=O)[O-])cc([N+](=O)[O-])cc2[N+](=O)[O-])c1,inactive: -7.85%
13,CCOC(=O)N1CCC(Nc2ccc(C)cc2)CC1,inactive: 2.67%
14,N/C(=N\O)c1c(N)no[n+]1[O-],inactive: -2.77%
15,CC(C)(C)OC(=O)N1CCC(Nc2ccccc2)CC1,inactive: -4.42%
16,O=C(O)C1(Nc2ccccc2)CCN(Cc2ccccc2)CC1,inactive: 5.01%
17,CCCOc1ccc(C(=O)NCC2(N(C)C)CCCCC2)cc1,inactive: -9.8%
18,CCOc1ncccc1C(=O)NCC1(N2CCOCC2)CCCCC1,inactive: -5.86%
19,CN1CCC(Nc2ccc(F)c(Cl)c2)CC1,inactive: 10.7%
20,CN1CCC(Nc2ccc(Cl)cc2)CC1,inactive: -14.7%
21,COc1cc(OC)cc(C(=O)NCC2(N3CCOCC3)CCCCC2)c1,inactive: -18.3%
22,COc1cccc(C(=O)N(c2cc(C)cc(C)c2)C2CCN(C(=O)OC(C)(C)C)CC2)c1,inactive: 33.8%
23,CCC(CO)(C(=O)OC1CN2CCC1CC2)c1ccccc1 (stereo not given),inactive: 2.03%
24,Cc1ccc(C(=O)NCC2(N3CCCCC3)CCCCC2)o1,inactive: -3.56%
25,Fc1ccccc1NC1CCN(Cc2ccccc2)CC1,inactive: 7.84%
26,Cc1ccc(NC2(C#N)CCN(Cc3ccccc3)CC2)cc1,inactive: 7.64%
27,CC(=O)N(c1ccccc1)C1CCNCC1,inactive: 20.4%

row,Compound,"activity change, negative = inhibition"
1,COc1cc(OC)cc(C(=O)NCC2(N3CCCCC3)CCCCC2)c1,inactive: 25.8%
2,O=C(NCC1(N2CCCCC2)CCCCC1)c1ccco1,inactive: 0.927%
3,CN(C)c1ccc(C(=O)NCC2(N3CCCCC3)CCCCC2)cc1,inactive: 0.211%
4,Cn1c(=O)[nH]cc(N(CCCl)CCCl)c1=O,inactive: 0.0508%
5,Cc1ccccc1NC1(C#N)CCN(Cc2ccccc2)CC1,inactive: 2.99%
6,CCN1CCC(Nc2cccc(F)c2)CC1,inactive: -15.7%
7,O=P1(N(CCCl)CCCl)SCCCS1,inactive: -9.16%
8,CCCCOc1ccc(C(=O)NCC2(N3CCOCC3)CCCCC2)cc1,inactive: 11.3%
9,O=C(NCC1(N2CCCCC2)CCCCC1)c1ccc(F)cc1,inactive: 10.2%
10,COc1ccc(NC2CCN(CCc3ccccc3)CC2)c(OC)c1,inactive: -5.11%
11,CCOC(=O)N1CCC(Nc2ccc(F)cc2)CC1,inactive: 10.1%
12,O=C1CCN(Cc2ccccc2)CC1,inactive: -6.45%
13,CCOc1ccc(C)cc1CN(CCCl)CCCl,inactive: 1.41%
14,CCOC(=O)N1CCC(Nc2cccc(C)c2)CC1,inactive: -15.5%
15,COc1cc(C(=O)NCC2(N(C)C)CCCCC2)ccc1OC(F)F,inactive: 0.795%
16,CSc1ccccc1C(=O)NCC1(N2CCCCC2)CCCCC1,inactive: 0.622%
17,Cc1cccc(NC2(C#N)CCN(Cc3ccccc3)CC2)c1,inactive: 0.785%
18,COc1ccc(C(=O)NCC2(N3CCCCC3)CCCCC2)cc1,inactive: -0.194%
19,CC(C)(C)OC(=O)N1CCC(N(C(=O)c2ccccc2)c2ccc(F)cc2)CC1,inactive: -0.36%
20,COc1ccc(C(=O)NCC2(N3CCCCC3)CCCCC2)c(OC)c1OC,inactive: 12.8%
21,O=C(NCC1(N2CCCCC2)CCCCC1)c1ccc(=O)[nH]c1,inactive: 1.24%
22,O=C(NCC1(N2CCCCC2)CCCCC1)c1cccs1,inactive: -19.7%
23,O=C(NCC1(N2CCCCC2)CCCCC1)c1ccc(Cl)s1,inactive: -3.17%
24,N#CC1(Nc2ccccc2)CCN(Cc2ccccc2)CC1,inactive: 7.38%
25,O=C(OC1CN2CCC1CC2)C1c2ccccc2Oc2ccccc21 (stereo not given),inactive: 2.17%
26,COc1ccc(Cl)cc1C(=O)NCC1(N2CCOCC2)CCCCC1,inactive: 5.54%
27,O=C1C(O)=C([N+](=O)[O-])C(=O)C(O)=C1[N+](=O)[O-],inactive: -7.51%

row,Compound,"activity change, negative = inhibition"
1,CCOC(=O)N1CCC(Nc2ccc(OC)cc2)CC1,inactive: 5.76%
2,O=C(NCC1(N2CCCCC2)CCCCC1)c1ccc(Cl)nc1,inactive: -7.27%
3,Cc1cc(C)cc(N(C(=O)c2ccccc2)C2CCN(C(=O)OC(C)(C)C)CC2)c1,inactive: -11.2%
4,O=C(NCC1(N2CCOCC2)CCCCC1)c1cc2ccccc2o1,inactive: -6.89%
5,COc1cc(OC)c(C(=O)NCC2(N(C)C)CCCCC2)cc1OC,inactive: 8.52%
6,O=C(NCC1(N2CCOCC2)CCCCC1)c1cc(F)c(F)cc1Cl,inactive: -0.598%
7,CC(C)c1ccc(NC2CCN(C(=O)OC(C)(C)C)CC2)cc1,inactive: 9.66%
8,COc1ccc(CN(CCCl)CCCl)cc1Cl,inactive: 1.39%
9,O=[N+]([O-])c1cc([N+](=O)[O-])c(OC2CCCCC2O)c([N+](=O)[O-])c1 (stereo not given),inactive: 11.8%
10,CN(C)c1cccc(C(=O)NCC2(N3CCCCC3)CCCCC2)c1,inactive: 19.6%
11,CCCOc1ccc(C(=O)NCC2(N(C)C)CCCCC2)cc1OC,inactive: -4.47%
12,O=C(OC1CN2CCC1CC2)c1ccc([N+](=O)[O-])cc1 (stereo not given),inactive: -13.1%
13,CN1CCC(Nc2cccc(F)c2)CC1,inactive: -1.49%
14,COc1ccc2c(c1O)-c1c(O)c(OC)cc3c1[C@H](C2)[N+](C)(C)CC3.O=[N+]([O-])c1cc([N+](=O)[O-])c([O-])c([N+](=O)[O-])c1[O-],inactive: 0.331%
15,O=C(NCC1(N2CCCCC2)CCCCC1)c1cncc(Br)c1,inactive: -9.26%
16,CCN1CCC(Nc2ccc(Cl)cc2)CC1,inactive: 13.2%
17,O=C(NCC1(N2CCCCC2)CCCCC1)c1cccc([N+](=O)[O-])c1,inactive: 15.3%
18,CSc1ccc(C(=O)NCC2(N3CCOCC3)CCCCC2)cc1,inactive: -7.38%
19,O=C(NCC1(N2CCCCC2)CCCCC1)c1ccc(OC(F)F)cc1,inactive: 0.654%
20,COc1cc(C(=O)NCC2(N3CCCCC3)CCCCC2)ccc1OC(F)F,inactive: -0.731%
21,O=C(NCC1(N2CCOCC2)CCCCC1)c1cc(=O)[nH]c2ccccc12,inactive: 9.77%
22,CN1CCN(CCOC(=O)C(O)(c2ccccc2)c2ccccc2)CC1,inactive: 0.86%
23,CC(C)c1ccc(C(=O)NCC2(N3CCOCC3)CCCCC2)cc1,inactive: 0.74%
24,COc1ccc(NC2CCN(C(=O)OC(C)(C)C)CC2)cc1,inactive: 9.28%
25,O=[N+]([O-])c1cc([N+](=O)[O-])c(NCC2CCS(=O)(=O)C2)c([N+](=O)[O-])c1 (stereo not given),inactive: -6.12%
26,O=C(NCC1(N2CCCCC2)CCCCC1)c1cccc(C(F)(F)F)c1,inactive: 7.98%

# — PubChem BioAssay AID540253 (National Center for Advancing Translational Sciences (NCATS), 2011)
